Each structure is given as a SMILES string.

Chains of the proteins cited; added tags and fusions are not shown. Lines headed by an entry give the natural chain unless they say otherwise; changes in a name come on top.
UniProt Q07889, whole entry, stated change not applied: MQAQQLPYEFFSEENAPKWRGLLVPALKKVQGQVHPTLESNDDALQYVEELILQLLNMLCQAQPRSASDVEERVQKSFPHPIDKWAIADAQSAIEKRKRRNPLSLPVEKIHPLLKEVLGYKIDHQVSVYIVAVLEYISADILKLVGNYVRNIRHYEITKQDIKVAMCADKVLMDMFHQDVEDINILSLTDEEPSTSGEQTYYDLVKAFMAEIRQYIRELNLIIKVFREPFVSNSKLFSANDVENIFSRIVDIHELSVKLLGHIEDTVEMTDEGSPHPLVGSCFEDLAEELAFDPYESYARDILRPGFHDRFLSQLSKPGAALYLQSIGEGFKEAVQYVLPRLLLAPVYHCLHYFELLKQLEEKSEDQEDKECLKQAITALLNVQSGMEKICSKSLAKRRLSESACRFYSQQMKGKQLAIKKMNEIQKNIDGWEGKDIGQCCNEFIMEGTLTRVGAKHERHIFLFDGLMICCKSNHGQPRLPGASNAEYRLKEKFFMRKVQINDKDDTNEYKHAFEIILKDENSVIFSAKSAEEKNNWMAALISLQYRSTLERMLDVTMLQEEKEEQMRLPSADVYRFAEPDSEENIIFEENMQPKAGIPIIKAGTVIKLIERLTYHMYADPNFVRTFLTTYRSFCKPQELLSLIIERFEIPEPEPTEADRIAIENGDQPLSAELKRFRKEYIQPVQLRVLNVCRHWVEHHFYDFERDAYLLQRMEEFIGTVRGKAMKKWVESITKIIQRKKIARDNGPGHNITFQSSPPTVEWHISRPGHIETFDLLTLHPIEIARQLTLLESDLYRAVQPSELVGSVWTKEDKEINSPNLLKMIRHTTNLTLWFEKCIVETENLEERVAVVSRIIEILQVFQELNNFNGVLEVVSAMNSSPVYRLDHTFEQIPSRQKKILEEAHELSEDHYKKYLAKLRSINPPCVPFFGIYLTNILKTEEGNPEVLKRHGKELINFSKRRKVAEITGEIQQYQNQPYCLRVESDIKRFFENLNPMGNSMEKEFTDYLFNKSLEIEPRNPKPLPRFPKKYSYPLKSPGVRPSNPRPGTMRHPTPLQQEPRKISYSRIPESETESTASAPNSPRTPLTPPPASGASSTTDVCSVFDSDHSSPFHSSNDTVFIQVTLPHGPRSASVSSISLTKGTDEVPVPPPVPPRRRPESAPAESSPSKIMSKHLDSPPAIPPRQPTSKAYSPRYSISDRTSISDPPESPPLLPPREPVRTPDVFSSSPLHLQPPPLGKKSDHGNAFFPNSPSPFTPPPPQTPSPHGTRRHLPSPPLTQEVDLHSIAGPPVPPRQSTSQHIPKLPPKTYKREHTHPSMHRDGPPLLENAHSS

In this assay the target is KRAS G12C/SOS1 (Homo sapiens, UniProt Q07889). As to the kind of experiment: KRAS::SOS1 HTRF Binding Analysis (inhibition of protein-protein interaction between SOS1 and KRAS G12C). Conditions: 0.1 uM compound, GTP, room temperature, one hour and 40 minutes. How it is done:
An SOS1 inhibitory ability of the example compounds of the present invention was confirmed by identifying the effect of inhibiting a protein-protein interaction between SOS1 and KRAS G12C of the compounds according to examples of the present invention.
Specifically, a KRAS G12C/SOS1 binding kit (64KRASG12PEG, Cisbio, France) was text use purchased and used. 2 ? of Tagl-KRAS G12C and 2 ? of GTP were premixed and dispensed 4 μl each into a 384 well plate (6007290, PerkinElmer, USA). 2 ? of the compound and 4 ? of Tag2-SOS1 were placed and then 10 ? of premixed Anti-Tag1 XL665 antibody and Anti-Tag2 Tb cryptate antibody was dispensed to each well. The plates were sealed and allowed to react at room temperature for one hour and 40 minutes, and then 665 nm wavelength and 620 nm wavelength were measured using a HTRF® compatible reader (Synergy H4, BioTeK, USA), and the ratio of receptor and donor emission signals for each well was calculated as 665 nm/620 nm×10^4.
(+++: more than 70 to 100% inhibition, ++: more than 40 to 70% inhibition, +: 0 to 40% inhibition)
A general note: In TR-FRET formats the signal depends on donor and acceptor labels being close together.
`C[C@@H](Nc1cnnc2ccc(C3=CCOCC3)cc12)c1cccc(C(F)F)c1F`: the “% inhibition at 0.1 uM” value is reported as “+ (0 to 40% inhibition)”. To `COC1CC2(C1)CN(c1ccc3nncc(N[C@H](C)c4cccc(C(F)F)c4F)c3c1)C2` belongs “+ (0 to 40% inhibition)”; to `C[C@@H](Nc1cnnc2ccc(N3C[C@@H]4C[C@H]3CO4)cc12)c1cccc(C(F)F)c1F`, “+ (0 to 40% inhibition)”; to `C[C@@H](Nc1cnnc2ccc(NC3CCOCC3)cc12)c1cccc(C(F)F)c1F`, “+ (0 to 40% inhibition)”. In the case of `C[C@@H](Nc1cnnc2ccc(N3C4CCC3COC4)cc12)c1cccc(C(F)F)c1F` it was “+ (0 to 40% inhibition)”. In the case of `C[C@@H](Nc1cnnc2ccc(N[C@@H]3CCNC3)cc12)c1cccc(C(F)F)c1F` it was “+++ (more than 70 to 100% inhibition)”; in that of `C[C@@H](Nc1cnnc2ccc(N[C@@H]3CCN(C)C3)cc12)c1cccc(C(F)F)c1F`, “++ (more than 40 to 70% inhibition)”. Regarding `C[C@@H](Nc1cnnc2ccc(N3C[C@H]4COC[C@H]4C3)cc12)c1cccc(C(F)F)c1F`, the “% inhibition at 0.1 uM” value is recorded as “++ (more than 40 to 70% inhibition)”. With `C[C@@H](Nc1cnnc2ccc(C3=CCNCC3)cc12)c1cccc(C(F)F)c1F`, the “% inhibition at 0.1 uM” value is “++ (more than 40 to 70% inhibition)”.

On to `Cc1c(C#N)cccc1[C@@H](C)Nc1cnnc2ccc(N3CC4CC(C3)O4)cc12`, for which the “% inhibition at 0.1 uM” value was “+ (0 to 40% inhibition)”. As to `C[C@@H](Nc1cnnc2ccc(N3CC4CC(C3)O4)cc12)c1cccc(F)c1F`, the “% inhibition at 0.1 uM” value is listed as “+ (0 to 40% inhibition)”. To `Cc1c([C@@H](C)Nc2cnnc3ccc(N4CC5(CN(C)C5)C4)cc23)cccc1C(F)(F)F` belongs “+ (0 to 40% inhibition)”; to `C[C@@H](Nc1cnnc2ccc(N3CC(C)(O)C3)cc12)c1cccc(C(F)F)c1`, “+ (0 to 40% inhibition)”; to `C[C@@H](Nc1cnnc2ccc(N[C@@H]3CCNC3)cc12)c1cccc(C#N)c1`, “+ (0 to 40% inhibition)”. In the case of `Cc1c([C@@H](C)Nc2cnnc3ccc(N4CC5CC(C4)O5)cc23)cccc1C(F)(F)F` it was “+ (0 to 40% inhibition)”; in that of `C[C@@H](Nc1cnnc2ccc(N3CC4CC(C3)O4)cc12)c1cc(O)cc(C(F)F)c1`, “+ (0 to 40% inhibition)”. To `C[C@@H](Nc1cnnc2ccc(N[C@H]3CCNC3)cc12)c1cccc(C(F)F)c1F` belongs “++ (more than 40 to 70% inhibition)”; to `C[C@@H](Nc1cnnc2ccc(N3CCN(C)CC3)cc12)c1cccc(C(F)F)c1F`, “++ (more than 40 to 70% inhibition)”; to `C[C@@H](Nc1cnnc2ccc(N3CCC(N(C)C)CC3)cc12)c1cccc(C(F)F)c1F`, “++ (more than 40 to 70% inhibition)”. On to `C[C@@H](Nc1cnnc2ccc(N3CCC[C@@H](O)C3)cc12)c1cccc(C(F)F)c1F`, for which the “% inhibition at 0.1 uM” value is reported as “+ (0 to 40% inhibition)”. On to `CO[C@H]1CCCN(c2ccc3nncc(N[C@H](C)c4cccc(C(F)F)c4F)c3c2)C1`, for which the “% inhibition at 0.1 uM” value is recorded as “+ (0 to 40% inhibition)”. In the case of `Cc1c(C#N)cccc1[C@@H](C)Nc1cnnc2ccc(C3=CCN(C)CC3)cc12` it was “+ (0 to 40% inhibition)”.

In the case of `C[C@@H](Nc1cnnc2ccc(N3CC[C@@H](O)C3)cc12)c1cccc(C(F)F)c1F`, the “% inhibition at 0.1 uM” value is reported as “++ (more than 40 to 70% inhibition)”. In the case of `C[C@@H](Nc1cnnc2ccc(N3CC4CC(C3)O4)cc12)c1cccc(C(F)F)c1` it was “+ (0 to 40% inhibition)”. In the case of `C[C@@H](Nc1cnnc2ccc(N3CC4CC(C3)O4)cc12)c1cccc(C(F)F)c1F` it was “++ (more than 40 to 70% inhibition)”; in that of `C[C@@H](Nc1cnnc2ccc(N3CCC(O)CC3)cc12)c1cccc(C(F)F)c1F`, “+++ (more than 70 to 100% inhibition)”.

As to `C[C@@H](Nc1cnnc2ccc(C3=CCN(C(=O)C4COC4)CC3)cc12)c1cccc(C(F)F)c1F`, the “% inhibition at 0.1 uM” value is on record as “+++ (more than 70 to 100% inhibition)”. In the case of `C[C@@H](Nc1cnnc2ccc(N3C[C@H]4C[C@@H]3CO4)cc12)c1cccc(C(F)F)c1` it was “+ (0 to 40% inhibition)”. In the case of `C[C@@H](Nc1cnnc2ccc(N3CCN(C(=O)[C@H]4CCOC4)CC3)cc12)c1cccc(C(F)F)c1F` it was “++ (more than 40 to 70% inhibition)”. To `C[C@@H](Nc1cnnc2ccc(N3CC[C@H](O)C3)cc12)c1cccc(C(F)F)c1F` belongs “+ (0 to 40% inhibition)”; to `Cc1c(C#N)cccc1[C@@H](C)Nc1cnnc2ccc(N3CCC(C)(O)CC3)cc12`, “+ (0 to 40% inhibition)”; to `CC(=O)N1CC=C(c2ccc3nncc(N[C@H](C)c4cccc(C(F)F)c4F)c3c2)CC1`, “+ (0 to 40% inhibition)”.

Regarding `C[C@@H](Nc1cnnc2ccc(N3CC[C@H](F)C3)cc12)c1cccc(C(F)F)c1F`, the “% inhibition at 0.1 uM” value was “+ (0 to 40% inhibition)”. As to `C[C@@H](Nc1cnnc2ccc(N3CCOCC3)cc12)c1cccc(C(F)F)c1F`, the “% inhibition at 0.1 uM” value is reported as “+ (0 to 40% inhibition)”.

Consider `COC1CCN(c2ccc3nncc(N[C@H](C)c4cccc(C(F)F)c4F)c3c2)CC1`, for which the “% inhibition at 0.1 uM” value is “+ (0 to 40% inhibition)”. As to `C[C@@H](Nc1cnnc2ccc(N3CCN4CCOC[C@@H]4C3)cc12)c1cccc(C(F)F)c1F`, the “% inhibition at 0.1 uM” value was “++ (more than 40 to 70% inhibition)”. To `C[C@@H](Nc1cnnc2ccc(N3CCN(C4COC4)CC3)cc12)c1cccc(C(F)F)c1F` belongs “+ (0 to 40% inhibition)”; to `C[C@@H](Nc1cnnc2ccc(N[C@H]3CCOC3)cc12)c1cccc(C(F)F)c1F`, “+ (0 to 40% inhibition)”; to `C[C@@H](Nc1cnnc2ccc(N3CC(C)(O)C3)cc12)c1cccc(C(F)F)c1F`, “+ (0 to 40% inhibition)”. To `CO[C@@H]1CCCN(c2ccc3nncc(N[C@H](C)c4cccc(C(F)F)c4F)c3c2)C1` belongs “+ (0 to 40% inhibition)”; to `C[C@@H](Nc1cnnc2ccc(N3CCSCC3)cc12)c1cccc(C(F)F)c1F`, “+ (0 to 40% inhibition)”; to `C[C@@H](Nc1cnnc2ccc(N3CCC(C)(O)CC3)cc12)c1cccc(C(F)F)c1F`, “++ (more than 40 to 70% inhibition)”. To `C[C@@H](Nc1cnnc2ccc(N3CC4CCC(C3)O4)cc12)c1cccc(C(F)F)c1F` belongs “+ (0 to 40% inhibition)”.

As to `C[C@@H](Nc1cnnc2ccc(N3CC(O)C3)cc12)c1cccc(C(F)F)c1F`, the “% inhibition at 0.1 uM” value is “+ (0 to 40% inhibition)”. In the case of `C[C@@H]1CN(c2ccc3nncc(N[C@H](C)c4cccc(C(F)F)c4F)c3c2)CCO1`, the “% inhibition at 0.1 uM” value is on record as “+ (0 to 40% inhibition)”. Regarding `C[C@@H](Nc1cnnc2ccc(C3=CCN(C)CC3)cc12)c1cccc(C(F)F)c1F`, the “% inhibition at 0.1 uM” value is given as “+++ (more than 70 to 100% inhibition)”. On to `C[C@@H](Nc1cnnc2ccc(N3CCN(C(=O)C4CC4)CC3)cc12)c1cccc(C(F)F)c1F`, for which the “% inhibition at 0.1 uM” value is “++ (more than 40 to 70% inhibition)”.

Regarding `COC1(C)CN(c2ccc3nncc(N[C@H](C)c4cccc(C(F)F)c4F)c3c2)C1`, the “% inhibition at 0.1 uM” value was “+ (0 to 40% inhibition)”. In the case of `C[C@@H](Nc1cnnc2ccc(N3CC4CC(C3)O4)cc12)c1cccc(C(F)(F)F)c1` it was “+ (0 to 40% inhibition)”; in that of `C[C@@H](Nc1cnnc2ccc(N3CC[C@@H](F)C3)cc12)c1cccc(C(F)F)c1F`, “+ (0 to 40% inhibition)”; in that of `C[C@@H](Nc1cnnc2ccc(N3CCN(C(=O)C4CCOCC4)CC3)cc12)c1cccc(C(F)F)c1F`, “++ (more than 40 to 70% inhibition)”. As for `C[C@@H](Nc1cnnc2ccc(N3CCN(C(=O)C4COC4)CC3)cc12)c1cccc(C(F)F)c1F`, the “% inhibition at 0.1 uM” value is “+++ (more than 70 to 100% inhibition)”. In the case of `C[C@@H](Nc1cnnc2ccc(N3C[C@H]4C[C@@H]3CO4)cc12)c1cccc(C(F)F)c1F` it was “++ (more than 40 to 70% inhibition)”; in that of `C[C@@H](Nc1cnnc2ccc(N3CCC(NC(=O)C4COC4)CC3)cc12)c1cccc(C(F)F)c1F`, “++ (more than 40 to 70% inhibition)”. In the case of `C[C@@H](Nc1cnnc2ccc(N3CCC(C)(O)CC3)cc12)c1cccc(C(F)F)c1` it was “+ (0 to 40% inhibition)”; in that of `COC1CN(c2ccc3nncc(N[C@H](C)c4cccc(C(F)F)c4F)c3c2)C1`, “+ (0 to 40% inhibition)”. To `C[C@@H](Nc1cnnc2ccc(N[C@@H]3CCOC3)cc12)c1cccc(C(F)F)c1F` belongs “+ (0 to 40% inhibition)”. For the compound `C[C@@H](Nc1cnnc2ccc(N3CC4(COC4)C3)cc12)c1cccc(C(F)F)c1F`, the “% inhibition at 0.1 uM” value was “+ (0 to 40% inhibition)”. Consider `C[C@H]1CN(c2ccc3nncc(N[C@H](C)c4cccc(C(F)F)c4F)c3c2)CCO1`, for which the “% inhibition at 0.1 uM” value is recorded as “+ (0 to 40% inhibition)”.

As for `C[C@@H](Nc1cnnc2ccc(N3CCC[C@H](O)C3)cc12)c1cccc(C(F)F)c1F`, the “% inhibition at 0.1 uM” value is “++ (more than 40 to 70% inhibition)”. To `C[C@@H](Nc1cnnc2ccc(N3CCN(C(=O)[C@@H]4CCOC4)CC3)cc12)c1cccc(C(F)F)c1F` belongs “+++ (more than 70 to 100% inhibition)”; to `C[C@@H](Nc1cnnc2ccc(C3=CCN(C)CC3)cc12)c1cccc(C#N)c1`, “+ (0 to 40% inhibition)”.

The values are drawn from US20260384401A1, “NOVEL BICYCLIC HETEROCYCLYL COMPOUNDS AND USE THEREOF” (published 2026).
